Our source for the Ki values is BindingDB's records for PubMed 2905001 (Mcneil Pharmaceutical, 1988).

Sequences of proteins named here, by UniProt entry; tags and fusion partners are left off.
UniProt P23977, whole entry: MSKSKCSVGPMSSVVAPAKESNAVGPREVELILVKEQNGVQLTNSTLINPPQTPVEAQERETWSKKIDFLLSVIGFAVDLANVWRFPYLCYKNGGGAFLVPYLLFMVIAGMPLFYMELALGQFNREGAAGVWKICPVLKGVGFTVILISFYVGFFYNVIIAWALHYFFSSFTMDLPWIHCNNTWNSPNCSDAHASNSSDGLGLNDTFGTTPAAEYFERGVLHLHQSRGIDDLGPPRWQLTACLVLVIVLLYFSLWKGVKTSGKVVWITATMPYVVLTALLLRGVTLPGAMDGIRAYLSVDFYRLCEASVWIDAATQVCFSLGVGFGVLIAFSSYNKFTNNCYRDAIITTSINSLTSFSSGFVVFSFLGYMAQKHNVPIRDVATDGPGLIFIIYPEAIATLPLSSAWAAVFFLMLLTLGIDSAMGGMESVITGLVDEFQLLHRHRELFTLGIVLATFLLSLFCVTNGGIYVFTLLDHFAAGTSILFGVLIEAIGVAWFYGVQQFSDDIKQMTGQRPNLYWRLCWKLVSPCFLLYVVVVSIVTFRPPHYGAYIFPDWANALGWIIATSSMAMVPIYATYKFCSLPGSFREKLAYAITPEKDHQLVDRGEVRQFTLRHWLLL
UniProt P14842, whole entry: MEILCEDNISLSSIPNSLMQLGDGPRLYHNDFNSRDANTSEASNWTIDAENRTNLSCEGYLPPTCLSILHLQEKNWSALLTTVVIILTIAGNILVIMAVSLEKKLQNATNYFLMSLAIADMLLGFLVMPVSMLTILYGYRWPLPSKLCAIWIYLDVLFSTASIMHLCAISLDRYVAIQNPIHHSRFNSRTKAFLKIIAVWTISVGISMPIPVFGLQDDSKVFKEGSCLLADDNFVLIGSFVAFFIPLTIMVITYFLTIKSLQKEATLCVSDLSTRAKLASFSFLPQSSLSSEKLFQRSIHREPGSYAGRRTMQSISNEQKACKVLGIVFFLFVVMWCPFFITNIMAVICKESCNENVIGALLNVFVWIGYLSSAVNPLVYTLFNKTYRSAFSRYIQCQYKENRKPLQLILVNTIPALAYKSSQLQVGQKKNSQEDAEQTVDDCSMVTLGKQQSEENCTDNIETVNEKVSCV

The target in experiment [1] is Sodium-dependent dopamine transporter (Rattus norvegicus, UniProt P23977).
Experiment [2] concerns the target 5-hydroxytryptamine receptor 2A (Rattus norvegicus, UniProt P14842).

The structures appear in SMILES notation. Counter-ions that a name gives are not always drawn. Where only a bound is given, the exact number is not on record here.

On to `Fc1ccc([C@@H]2CCNC[C@H]2COc2ccc3c(c2)OCO3)cc1` [PAROXETINE], for which the Ki (in general, the equilibrium dissociation constant of an inhibitor or competing ligand from its target) in experiment [1] amounted to 540 nM.

`CN(C)CCCC1(c2ccc(F)cc2)OCc2cc(C#N)ccc21` (stereo not drawn) [CITALOPRAM HYDROBROMIDE]: the Ki in experiment [1] was > 10000 nM.

`O=c1n(CCCN2CCN(c3cccc(Cl)c3)CC2)nc2ccccn12` [2-{3-[4-(3-chlorophenyl)piperazin-1-yl]propyl}[1,2,4]triazolo[4,3-a]pyridin-3(2H)-one] gave a Ki in experiment [2] of 1.94 nM. In other words, the single-digit nanomolar range.
